Legend:
[1] = species: Mus musculus; assay: Selectivity ratio of Ki for mouse delta opioid receptor to Ki for mouse mu opioid receptor
[2] = species: Mus musculus; assay: Selectivity ratio of Ki for mouse kappa opioid receptor to Ki for mouse mu opioid receptor
[3] = target: Mu-type opioid receptor (Mus musculus) (UniProt P42866); assay: Agonist activity at mouse mu opioid receptor expressed in CHO cells assessed as stimulation of [35S]-GTPgammaS binding after 1.5 hrs relative to DAMGO; type: functional, cell-based

Amino acid sequences for entries named in this document (tags omitted).
UniProt P42866, whole entry: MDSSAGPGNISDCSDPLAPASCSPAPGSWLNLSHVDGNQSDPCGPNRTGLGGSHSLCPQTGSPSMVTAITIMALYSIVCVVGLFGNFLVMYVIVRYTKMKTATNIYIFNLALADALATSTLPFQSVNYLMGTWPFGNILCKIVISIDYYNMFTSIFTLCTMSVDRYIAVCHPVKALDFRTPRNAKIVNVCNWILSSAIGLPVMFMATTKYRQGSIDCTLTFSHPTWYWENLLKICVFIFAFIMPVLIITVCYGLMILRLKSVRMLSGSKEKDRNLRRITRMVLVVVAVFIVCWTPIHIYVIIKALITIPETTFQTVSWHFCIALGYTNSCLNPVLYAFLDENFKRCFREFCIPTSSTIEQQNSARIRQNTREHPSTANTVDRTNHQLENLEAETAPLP

Row | SMILES | Ratio Ki [1] | Ratio Ki [2] | Emax [3] [%]
1 | O=C(N[C@H]1CC[C@@]2(O)[C@H]3Cc4ccc(O)c5c4[C@@]2(CCN3CC2CC2)[C@H]1O5)c1ncc2ccccc2c1O | 73 | 8.9 | –
2 | O=C(N[C@H]1CC[C@@]2(O)[C@H]3Cc4ccc(O)c5c4[C@@]2(CCN3CC2CC2)[C@H]1O5)c1cc2ccccc2c(Cl)n1 | 63 | 8.6 | 26.4

Reference: ChEMBL document CHEMBL2417375 (Bioorg Med Chem Lett, 2013)
